Measurements taken from ChEMBL document CHEMBL4382201 (J Med Chem, 2018).
The source made the active and inactive calls. The rule behind the calls is not given here.

System: DNA
Test: Induction of DNA cross-linking activity in human CLL-derived lymphocytes assessed as increase in gammaH2AX formation at 5 to 20 uM after 24 hrs by flow cytometry
Assay type: functional, cell-based

Oc1ccc(N(CCCl)CCCl)cc1
Activity: Active
